Assay results published in patent EP3546476A1 (Repligen Corporation, dated 2019).

Target: Cetuximab (IgG1)
Assay: SPR, Biacore 3000, CM5 chip, 25 °C, Langmuir 1:1 model

Binder | Kd
cs14 (designed binder) IAAKHDKDQQAAFYEILHLPNLTEDQRNAFIQSLRDDPSVSLEILGEAKKLNDAQAPPWSHPQFEK | 2.9 nM
cs26 (designed binder) IAAQHDKDQQAAFYEILHLPNLTEEQRNAFIQSLRDDPSVSLEILAEAKKLNDAQAPKWSHPQFEK | 6.5 nM
